1 compound from ChEMBL document CHEMBL3232862, “Optimization of chemical functionalities of indole-2-carboxamides to improve allosteric parameters for the cannabinoid receptor 1 (CB1)” (J Med Chem, 2014) can be followed below.

Amino acid sequences for entries named in this document (tags omitted).
UniProt P21554, whole entry: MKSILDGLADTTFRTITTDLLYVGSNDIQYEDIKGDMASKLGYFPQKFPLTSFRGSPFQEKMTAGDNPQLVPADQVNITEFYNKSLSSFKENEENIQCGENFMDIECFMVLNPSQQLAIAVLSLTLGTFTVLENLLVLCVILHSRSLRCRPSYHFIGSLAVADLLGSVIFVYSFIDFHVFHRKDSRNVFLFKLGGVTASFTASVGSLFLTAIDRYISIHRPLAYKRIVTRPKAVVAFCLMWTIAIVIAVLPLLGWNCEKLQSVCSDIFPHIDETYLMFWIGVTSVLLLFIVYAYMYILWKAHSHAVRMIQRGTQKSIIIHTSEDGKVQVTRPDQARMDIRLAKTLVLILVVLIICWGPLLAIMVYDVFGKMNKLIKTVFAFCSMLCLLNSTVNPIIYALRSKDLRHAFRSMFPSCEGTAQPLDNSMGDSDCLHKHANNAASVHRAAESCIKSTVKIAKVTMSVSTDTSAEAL

Active and inactive are the calls of the source. The calls are words filed in the database; no cut-off is given here.

In assay [1] the target is Cannabinoid receptor 1 (Homo sapiens) (UniProt P21554). Briefly: Positive allosteric modulation of cannabinoid CB1 receptor (unknown origin) expressed in HEK293 cells assessed as induction of ERK1/2 phosphorylation by Western blot analysis in presence of siRNA targeting beta-arrestin 1. It counts as cell-based. Put shortly:
(§1)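 HEK293 cells were lipofectamine-transfected with CB1, with or without β-arrestin 1 siRNA (2.6 μg) or a nonsilencing control. After 24 h they were serum-starved for 18 h, with optional PTX at 5 ng/mL for 16 h at 37 °C. Cells were exposed 5 min to modulator (0–10 μM) plus 0.2 μM CP55,940 and lysed. 12 μg protein was run on 10% SDS-PAGE and immunoblotted for phospho-p44/42 and total p44/42.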

The target is the same in assay [2]. As to the kind of experiment: Positive allosteric modulation of cannabinoid CB1 receptor (unknown origin) expressed in HEK293 cells assessed as induction of ERK1/2 phosphorylation by Western blot analysis in absence of siRNA targeting beta-arrestin 1. It is filed as cell-based. Put shortly:
as §1
For orientation: A western blot detects proteins with antibodies after separation by electrophoresis.

Take `CCCCCc1c(C(=O)NCCc2ccc(N3CCCCC3)cc2)[nH]c2ccc(Cl)cc12`: the inhibition result in assay [1] is “inactive”. Further, in assay [2], the inhibition result is “Dose-dependent effect”.
